# In PMC11206519, “Multi-Endpoint Toxicological Assessment of Chrysin Loaded Oil-in-Water Emulsion System in Different Biological Models” (Nanomaterials, 2024):
# Assays:
# [1] = tested on: S. typhimurium TA 98; assay: Ames test, mutagenicity; assay type: cell-based, Salmonella Typhimurium; details: −S9; 0.1 µg/plate, positive control
# [2] = tested on: S. typhimurium TA98; assay: Ames test, anti-mutagenicity; details: standard mutagen alone, 0.1 µg/plate, −S9
# [3] = tested on: S. typhimurium TA100; assay: Ames test, anti-mutagenicity; details: standard mutagen alone, 0.1 µg/plate, −S9
structure (smiles),measurement,setting,value
"NC(=O)C(=Cc1ccc([N+](=O)[O-])o1)c1ccco1 [AF-2, 2-(2-Furyl)-3-(5-nitro-2-furyl) acrylamide, reference compound]",Number of Revertant Colonies,[1],379 ± 30
same,Number of Revertant Colonies,[2],252 ± 12
same,Number of Revertant Colonies,[3],396 ± 11
